Source: patent EP4834897A1, “COMPOUNDS WITH TWO AZAHETEROCYCLES SUBSTITUTED ISOINDOLINONE SKELETON AND USES THEREOF” (dated 2026)

The chains behind the UniProt entries cited, without tags or fusion partners.
UniProt Q13422, whole entry: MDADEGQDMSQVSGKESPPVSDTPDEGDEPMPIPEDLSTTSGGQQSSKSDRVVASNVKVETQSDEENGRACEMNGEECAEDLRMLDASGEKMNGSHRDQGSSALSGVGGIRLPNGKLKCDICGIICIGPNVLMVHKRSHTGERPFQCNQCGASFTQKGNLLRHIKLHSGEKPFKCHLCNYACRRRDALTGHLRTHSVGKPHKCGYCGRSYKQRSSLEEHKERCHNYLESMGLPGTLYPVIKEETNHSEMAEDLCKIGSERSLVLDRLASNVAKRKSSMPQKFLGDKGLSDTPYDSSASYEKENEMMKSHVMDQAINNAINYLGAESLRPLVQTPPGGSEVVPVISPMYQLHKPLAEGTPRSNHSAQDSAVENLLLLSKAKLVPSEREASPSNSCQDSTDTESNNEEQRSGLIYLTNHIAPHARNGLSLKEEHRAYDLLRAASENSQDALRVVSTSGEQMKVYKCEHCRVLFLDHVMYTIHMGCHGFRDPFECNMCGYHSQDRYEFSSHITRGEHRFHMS
UniProt Q96SW2, whole entry: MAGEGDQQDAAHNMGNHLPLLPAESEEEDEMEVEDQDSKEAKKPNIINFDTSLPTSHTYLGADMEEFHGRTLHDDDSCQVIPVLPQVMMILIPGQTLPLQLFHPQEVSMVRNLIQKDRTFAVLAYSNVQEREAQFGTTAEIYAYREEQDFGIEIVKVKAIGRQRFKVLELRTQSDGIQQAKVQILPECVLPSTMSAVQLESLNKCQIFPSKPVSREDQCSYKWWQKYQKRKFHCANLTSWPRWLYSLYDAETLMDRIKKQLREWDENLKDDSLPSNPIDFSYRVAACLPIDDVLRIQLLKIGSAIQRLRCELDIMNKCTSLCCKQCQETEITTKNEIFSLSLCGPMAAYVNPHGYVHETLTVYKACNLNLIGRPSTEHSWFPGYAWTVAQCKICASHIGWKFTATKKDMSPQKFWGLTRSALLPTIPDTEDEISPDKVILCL
UniProt P48729, whole entry: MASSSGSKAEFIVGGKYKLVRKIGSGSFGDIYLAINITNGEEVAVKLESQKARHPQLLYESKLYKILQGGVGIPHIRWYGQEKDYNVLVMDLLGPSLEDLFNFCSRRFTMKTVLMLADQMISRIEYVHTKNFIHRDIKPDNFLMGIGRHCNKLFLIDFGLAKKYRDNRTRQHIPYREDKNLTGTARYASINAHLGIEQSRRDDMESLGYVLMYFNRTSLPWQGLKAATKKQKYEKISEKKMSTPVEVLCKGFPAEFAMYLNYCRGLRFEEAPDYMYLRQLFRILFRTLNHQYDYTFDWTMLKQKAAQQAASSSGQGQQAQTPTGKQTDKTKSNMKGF
UniProt Q9UKS7, whole entry: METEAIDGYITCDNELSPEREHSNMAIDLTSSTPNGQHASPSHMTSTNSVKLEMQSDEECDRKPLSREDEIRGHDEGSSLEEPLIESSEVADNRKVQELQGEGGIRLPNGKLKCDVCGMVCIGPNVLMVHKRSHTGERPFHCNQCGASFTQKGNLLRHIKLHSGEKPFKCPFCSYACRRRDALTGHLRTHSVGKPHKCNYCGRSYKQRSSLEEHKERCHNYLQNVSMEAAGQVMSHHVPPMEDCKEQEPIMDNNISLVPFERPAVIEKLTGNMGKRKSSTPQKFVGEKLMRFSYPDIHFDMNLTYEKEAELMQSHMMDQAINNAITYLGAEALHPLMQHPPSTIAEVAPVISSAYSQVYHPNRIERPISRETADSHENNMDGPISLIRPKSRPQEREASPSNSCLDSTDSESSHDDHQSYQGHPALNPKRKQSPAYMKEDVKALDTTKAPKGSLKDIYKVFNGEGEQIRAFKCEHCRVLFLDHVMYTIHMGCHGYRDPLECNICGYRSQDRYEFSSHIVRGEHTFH
UniProt Q9UKT9, whole entry: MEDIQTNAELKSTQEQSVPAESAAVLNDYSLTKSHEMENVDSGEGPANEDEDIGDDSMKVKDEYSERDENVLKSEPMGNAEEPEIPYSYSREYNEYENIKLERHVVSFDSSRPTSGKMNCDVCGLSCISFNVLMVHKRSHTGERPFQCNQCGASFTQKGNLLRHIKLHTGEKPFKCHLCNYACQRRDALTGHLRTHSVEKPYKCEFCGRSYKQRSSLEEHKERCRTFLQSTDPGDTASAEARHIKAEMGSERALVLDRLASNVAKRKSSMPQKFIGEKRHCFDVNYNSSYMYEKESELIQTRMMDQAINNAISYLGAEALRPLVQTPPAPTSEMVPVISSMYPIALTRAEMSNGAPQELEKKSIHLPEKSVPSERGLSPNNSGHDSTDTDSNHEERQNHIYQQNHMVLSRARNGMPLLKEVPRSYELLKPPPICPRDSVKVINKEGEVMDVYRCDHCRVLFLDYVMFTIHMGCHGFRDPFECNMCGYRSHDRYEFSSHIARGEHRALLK
UniProt P15170, whole entry: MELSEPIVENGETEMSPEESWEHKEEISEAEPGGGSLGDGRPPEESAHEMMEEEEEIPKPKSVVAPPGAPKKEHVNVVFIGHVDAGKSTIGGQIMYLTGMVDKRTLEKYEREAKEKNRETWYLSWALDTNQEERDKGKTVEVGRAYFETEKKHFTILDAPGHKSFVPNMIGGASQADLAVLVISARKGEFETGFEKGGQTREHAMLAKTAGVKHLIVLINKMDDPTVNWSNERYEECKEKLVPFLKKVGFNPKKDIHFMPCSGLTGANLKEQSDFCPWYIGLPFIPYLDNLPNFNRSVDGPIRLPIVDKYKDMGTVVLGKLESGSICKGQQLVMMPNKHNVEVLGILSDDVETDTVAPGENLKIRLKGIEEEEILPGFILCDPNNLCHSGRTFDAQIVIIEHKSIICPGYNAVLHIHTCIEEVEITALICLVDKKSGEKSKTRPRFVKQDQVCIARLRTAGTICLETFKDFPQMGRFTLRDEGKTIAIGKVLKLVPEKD
UniProt P30291, whole entry: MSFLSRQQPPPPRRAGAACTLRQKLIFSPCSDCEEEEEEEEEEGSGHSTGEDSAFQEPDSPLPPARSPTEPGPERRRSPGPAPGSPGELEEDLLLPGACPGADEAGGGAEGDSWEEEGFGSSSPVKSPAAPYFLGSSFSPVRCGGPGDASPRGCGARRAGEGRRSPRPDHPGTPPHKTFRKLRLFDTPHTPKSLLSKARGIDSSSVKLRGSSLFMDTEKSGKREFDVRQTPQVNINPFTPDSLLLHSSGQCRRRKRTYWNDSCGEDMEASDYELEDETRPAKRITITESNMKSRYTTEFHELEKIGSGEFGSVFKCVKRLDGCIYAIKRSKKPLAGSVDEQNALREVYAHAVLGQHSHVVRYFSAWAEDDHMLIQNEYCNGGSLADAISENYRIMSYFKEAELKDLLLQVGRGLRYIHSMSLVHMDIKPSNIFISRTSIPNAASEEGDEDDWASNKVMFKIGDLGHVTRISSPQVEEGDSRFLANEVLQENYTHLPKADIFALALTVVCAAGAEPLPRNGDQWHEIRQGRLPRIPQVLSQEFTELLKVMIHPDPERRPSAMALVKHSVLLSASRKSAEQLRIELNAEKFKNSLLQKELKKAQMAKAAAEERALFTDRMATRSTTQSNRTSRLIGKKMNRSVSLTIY
UniProt Q16531, whole entry partner: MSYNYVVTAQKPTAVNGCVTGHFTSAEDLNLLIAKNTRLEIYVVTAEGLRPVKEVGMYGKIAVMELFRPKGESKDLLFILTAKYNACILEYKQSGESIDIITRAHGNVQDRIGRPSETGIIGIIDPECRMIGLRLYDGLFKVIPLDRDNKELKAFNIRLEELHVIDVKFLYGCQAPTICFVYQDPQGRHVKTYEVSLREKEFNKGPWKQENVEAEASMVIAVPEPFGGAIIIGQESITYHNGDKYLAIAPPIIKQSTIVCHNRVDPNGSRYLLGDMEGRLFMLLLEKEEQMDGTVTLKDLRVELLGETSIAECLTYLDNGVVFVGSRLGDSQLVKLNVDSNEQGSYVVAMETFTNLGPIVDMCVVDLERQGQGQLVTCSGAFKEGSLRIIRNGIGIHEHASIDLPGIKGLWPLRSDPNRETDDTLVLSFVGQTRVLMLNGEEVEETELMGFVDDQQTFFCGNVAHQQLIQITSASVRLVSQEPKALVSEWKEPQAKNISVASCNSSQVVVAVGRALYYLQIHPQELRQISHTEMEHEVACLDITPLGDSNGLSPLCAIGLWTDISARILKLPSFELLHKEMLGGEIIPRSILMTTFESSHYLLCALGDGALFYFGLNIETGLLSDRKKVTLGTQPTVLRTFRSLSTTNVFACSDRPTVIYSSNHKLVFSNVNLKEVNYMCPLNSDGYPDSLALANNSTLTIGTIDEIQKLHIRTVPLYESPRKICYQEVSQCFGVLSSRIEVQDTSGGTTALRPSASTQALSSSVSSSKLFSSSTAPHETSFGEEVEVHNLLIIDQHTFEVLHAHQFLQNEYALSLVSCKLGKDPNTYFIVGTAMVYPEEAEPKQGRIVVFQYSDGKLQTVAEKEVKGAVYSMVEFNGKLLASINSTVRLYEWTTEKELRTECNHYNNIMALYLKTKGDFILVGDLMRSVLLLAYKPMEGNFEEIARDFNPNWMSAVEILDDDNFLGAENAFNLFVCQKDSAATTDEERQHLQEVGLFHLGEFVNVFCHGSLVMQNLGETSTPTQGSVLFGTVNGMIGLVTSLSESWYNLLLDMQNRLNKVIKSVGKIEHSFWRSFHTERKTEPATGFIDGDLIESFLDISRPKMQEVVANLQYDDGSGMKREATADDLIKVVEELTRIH

What follows are compounds tested on Human diffuse large B-cell lymphoma cell (TMD8) (assay: Tumor cell proliferation inhibition (cell viability assay)). Conditions: TMD8 cells; 10 nM; 96 hours.

Row | Compound | Inhibition Rate at 10 nM (%)
1 | O=C1CCC(N2Cc3cc(CN4CCC(N5CCN(c6cccc(Cl)c6Cl)CC5)C(F)(F)C4)c(F)cc3C2=O)C(=O)N1 (stereo not shown) | 1f4 (20% ≤ 1f4 < 30%)
2 | O=C1CCC(N2Cc3cc(CN4CCC(N5CCC(c6noc7cc(F)ccc67)CC5)C(F)(F)C4)c(F)cc3C2=O)C(=O)N1 (stereo not shown) | 1f4 (20% ≤ 1f4 < 30%)

Same assay, conditions: TMD8 cells; 500 nM; 96 hours

Row | Compound | Inhibition Rate at 500 nM (%)
3 | O=C1CCC(N2Cc3cc(CN4CCC(N5CCN(c6cccc(Cl)c6Cl)CC5)C(F)(F)C4)c(F)cc3C2=O)C(=O)N1 (stereo not shown) | 1f10 (80% ≤ 1f10 ≤ 100%)
4 | O=C1CCC(N2Cc3cc(CN4CCC(N5CCC(c6noc7cc(F)ccc67)CC5)C(F)(F)C4)c(F)cc3C2=O)C(=O)N1 (stereo not shown) | 1f8 (60% ≤ 1f8 < 70%)

Each compound was assayed on Human multiple myeloma cell (MM.1S) in the same assay as above. Conditions: MM.1S cells; 10 nM; 96 hours.

Row | Compound | Inhibition Rate at 10 nM (%)
5 | O=C1CCC(N2Cc3cc(CN4CCC(N5CCN(c6cccc(Cl)c6Cl)CC5)C(F)(F)C4)c(F)cc3C2=O)C(=O)N1 (stereo not shown) | 1b10 (80% ≤ 1b10 ≤ 100%)
6 | O=C1CCC(N2Cc3cc(CN4CCC(N5CCC(c6noc7cc(F)ccc67)CC5)C(F)(F)C4)c(F)cc3C2=O)C(=O)N1 (stereo not shown) | 1b10 (80% ≤ 1b10 ≤ 100%)

Same assay, conditions: MM.1S cells; 500 nM; 96 hours

Row | Compound | Inhibition Rate at 500 nM (%)
7 | O=C1CCC(N2Cc3cc(CN4CCC(N5CCN(c6cccc(Cl)c6Cl)CC5)C(F)(F)C4)c(F)cc3C2=O)C(=O)N1 (stereo not shown) | 1b10 (80% ≤ 1b10 ≤ 100%)
8 | O=C1CCC(N2Cc3cc(CN4CCC(N5CCC(c6noc7cc(F)ccc67)CC5)C(F)(F)C4)c(F)cc3C2=O)C(=O)N1 (stereo not shown) | 1b10 (80% ≤ 1b10 ≤ 100%)

What follows are compounds tested on Human mantle cell lymphoma cell line (JEKO-1) in the same assay as above. Conditions: JEKO-1 cells; 10 nM; 96 hours.

Row | Compound | Inhibition Rate at 10 nM (%)
9 | O=C1CCC(N2Cc3cc(CN4CCC(N5CCN(c6cccc(Cl)c6Cl)CC5)C(F)(F)C4)c(F)cc3C2=O)C(=O)N1 (stereo not shown) | 1g8 (60% ≤ 1g8 < 70%)
10 | O=C1CCC(N2Cc3cc(CN4CCC(N5CCC(c6noc7cc(F)ccc67)CC5)C(F)(F)C4)c(F)cc3C2=O)C(=O)N1 (stereo not shown) | 1g8 (60% ≤ 1g8 < 70%)

Same assay, conditions: JEKO-1 cells; 500 nM; 96 hours

Row | Compound | Inhibition Rate at 500 nM (%)
11 | O=C1CCC(N2Cc3cc(CN4CCC(N5CCN(c6cccc(Cl)c6Cl)CC5)C(F)(F)C4)c(F)cc3C2=O)C(=O)N1 (stereo not shown) | 1g10 (80% ≤ 1g10 ≤ 100%)
12 | O=C1CCC(N2Cc3cc(CN4CCC(N5CCC(c6noc7cc(F)ccc67)CC5)C(F)(F)C4)c(F)cc3C2=O)C(=O)N1 (stereo not shown) | 1g9 (70% ≤ 1g9 < 80%)

The compounds below were run on Human myeloid monocytic leukemia cell (MV-4-11) in the same assay as above. Conditions: MV-4-11 cells; 10 nM; 96 hours.

Row | Compound | Inhibition Rate at 10 nM (%)
13 | O=C1CCC(N2Cc3cc(CN4CCC(N5CCN(c6cccc(Cl)c6Cl)CC5)C(F)(F)C4)c(F)cc3C2=O)C(=O)N1 (stereo not shown) | 1a10 (80% ≤ 1a10 < 100%)
14 | O=C1CCC(N2Cc3cc(CN4CCC(N5CCC(c6noc7cc(F)ccc67)CC5)C(F)(F)C4)c(F)cc3C2=O)C(=O)N1 (stereo not shown) | 1a10 (80% ≤ 1a10 < 100%)

Same assay, conditions: MV-4-11 cells; 500 nM; 96 hours

Row | Compound | Inhibition Rate at 500 nM (%)
15 | O=C1CCC(N2Cc3cc(CN4CCC(N5CCN(c6cccc(Cl)c6Cl)CC5)C(F)(F)C4)c(F)cc3C2=O)C(=O)N1 (stereo not shown) | 1a10 (80% ≤ 1a10 < 100%)
16 | O=C1CCC(N2Cc3cc(CN4CCC(N5CCC(c6noc7cc(F)ccc67)CC5)C(F)(F)C4)c(F)cc3C2=O)C(=O)N1 (stereo not shown) | 1a10 (80% ≤ 1a10 < 100%)

What follows are compounds tested on Human colon cancer cell (SW620) in the same assay as above. Conditions: SW620 cells; 10 nM; 96 hours.

Row | Compound | Inhibition Rate at 10 nM (%)
17 | O=C1CCC(N2Cc3cc(CN4CCC(N5CCN(c6cccc(Cl)c6Cl)CC5)C(F)(F)C4)c(F)cc3C2=O)C(=O)N1 (stereo not shown) | 1d9 (70% ≤ 1d9 < 80%)
18 | O=C1CCC(N2Cc3cc(CN4CCC(N5CCC(c6noc7cc(F)ccc67)CC5)C(F)(F)C4)c(F)cc3C2=O)C(=O)N1 (stereo not shown) | 1d10 (80% ≤ 1d10 ≤ 100%)

Same assay, conditions: SW620 cells; 500 nM; 96 hours

Row | Compound | Inhibition Rate at 500 nM (%)
19 | O=C1CCC(N2Cc3cc(CN4CCC(N5CCN(c6cccc(Cl)c6Cl)CC5)C(F)(F)C4)c(F)cc3C2=O)C(=O)N1 (stereo not shown) | 1d10 (80% ≤ 1d10 ≤ 100%)
20 | O=C1CCC(N2Cc3cc(CN4CCC(N5CCC(c6noc7cc(F)ccc67)CC5)C(F)(F)C4)c(F)cc3C2=O)C(=O)N1 (stereo not shown) | 1d10 (80% ≤ 1d10 ≤ 100%)

Each compound was assayed on Human breast cancer cell (MCF-7) in the same assay as above. Conditions: MCF-7 cells; 10 nM; 96 hours.

Row | Compound | Inhibition Rate at 10 nM (%)
21 | O=C1CCC(N2Cc3cc(CN4CCC(N5CCN(c6cccc(Cl)c6Cl)CC5)C(F)(F)C4)c(F)cc3C2=O)C(=O)N1 (stereo not shown) | 1e9 (60% ≤ 1e9 < 70%)
22 | O=C1CCC(N2Cc3cc(CN4CCC(N5CCC(c6noc7cc(F)ccc67)CC5)C(F)(F)C4)c(F)cc3C2=O)C(=O)N1 (stereo not shown) | 1e8 (50% ≤ 1e8 < 60%)

Same assay, conditions: MCF-7 cells; 500 nM; 96 hours

Row | Compound | Inhibition Rate at 500 nM (%)
23 | O=C1CCC(N2Cc3cc(CN4CCC(N5CCN(c6cccc(Cl)c6Cl)CC5)C(F)(F)C4)c(F)cc3C2=O)C(=O)N1 (stereo not shown) | 1e11 (80% ≤ 1e11 ≤ 100%)
24 | O=C1CCC(N2Cc3cc(CN4CCC(N5CCC(c6noc7cc(F)ccc67)CC5)C(F)(F)C4)c(F)cc3C2=O)C(=O)N1 (stereo not shown) | 1e9 (60% ≤ 1e9 < 70%)

These compounds were tested on Human acute T lymphocytic leukemia cell (Molt4) in the same assay as above. Conditions: Molt4 cells; 10 nM; 96 hours.

Row | Compound | Inhibition Rate at 10 nM (%)
25 | O=C1CCC(N2Cc3cc(CN4CCC(N5CCN(c6cccc(Cl)c6Cl)CC5)C(F)(F)C4)c(F)cc3C2=O)C(=O)N1 (stereo not shown) | 1c11 (80% ≤ 1c11 ≤ 100%)
26 | O=C1CCC(N2Cc3cc(CN4CCC(N5CCC(c6noc7cc(F)ccc67)CC5)C(F)(F)C4)c(F)cc3C2=O)C(=O)N1 (stereo not shown) | 1c11 (80% ≤ 1c11 ≤ 100%)

Same assay, conditions: Molt4 cells; 500 nM; 96 hours

Row | Compound | Inhibition Rate at 500 nM (%)
27 | O=C1CCC(N2Cc3cc(CN4CCC(N5CCN(c6cccc(Cl)c6Cl)CC5)C(F)(F)C4)c(F)cc3C2=O)C(=O)N1 (stereo not shown) | 1c11 (80% ≤ 1c11 ≤ 100%)
28 | O=C1CCC(N2Cc3cc(CN4CCC(N5CCC(c6noc7cc(F)ccc67)CC5)C(F)(F)C4)c(F)cc3C2=O)C(=O)N1 (stereo not shown) | 1c11 (80% ≤ 1c11 ≤ 100%)

The compounds below were run against IKZF1 (Homo sapiens, UniProt Q13422+Q96SW2) (assay: Western blot assay of substrate protein degradation in hPBMCs). Conditions: 24 hours treatment, compounds at 50 nM and 500 nM (concentration behind the class not stated).

Row | Compound | substrate protein remaining % (IKZF 1)
29 | O=C1CCC(N2Cc3cc(CN4CCC(N5CCN(c6cccc(Cl)c6Cl)CC5)C(F)(F)C4)c(F)cc3C2=O)C(=O)N1 (stereo not shown) | A (0% ≤ substrate protein remaining % ≤ 80%)
30 | O=C1CCC(N2Cc3cc(CN4CCC(N5CCC(c6noc7cc(F)ccc67)CC5)C(F)(F)C4)c(F)cc3C2=O)C(=O)N1 (stereo not shown) | A (0% ≤ substrate protein remaining % ≤ 80%)

Each compound was assayed against CK1α (Homo sapiens, UniProt P48729+Q96SW2) in the same assay as above. Conditions: 24 hours treatment, compounds at 50 nM and 500 nM (concentration behind the class not stated).

Row | Compound | substrate protein remaining % (CK1a)
31 | O=C1CCC(N2Cc3cc(CN4CCC(N5CCN(c6cccc(Cl)c6Cl)CC5)C(F)(F)C4)c(F)cc3C2=O)C(=O)N1 (stereo not shown) | A (0% ≤ substrate protein remaining % ≤ 80%)
32 | O=C1CCC(N2Cc3cc(CN4CCC(N5CCC(c6noc7cc(F)ccc67)CC5)C(F)(F)C4)c(F)cc3C2=O)C(=O)N1 (stereo not shown) | A (0% ≤ substrate protein remaining % ≤ 80%)

What follows are compounds tested against IKZF2 (Homo sapiens, UniProt Q96SW2+Q9UKS7) in the same assay as above. Conditions: 24 hours treatment, compounds at 50 nM and 500 nM (concentration behind the class not stated).

Row | Compound | substrate protein remaining % (IKZF2)
33 | O=C1CCC(N2Cc3cc(CN4CCC(N5CCN(c6cccc(Cl)c6Cl)CC5)C(F)(F)C4)c(F)cc3C2=O)C(=O)N1 (stereo not shown) | A (0% ≤ substrate protein remaining % ≤ 80%)
34 | O=C1CCC(N2Cc3cc(CN4CCC(N5CCC(c6noc7cc(F)ccc67)CC5)C(F)(F)C4)c(F)cc3C2=O)C(=O)N1 (stereo not shown) | A (0% ≤ substrate protein remaining % ≤ 80%)

These compounds were tested against IKZF3 (Homo sapiens, UniProt Q96SW2+Q9UKT9) in the same assay as above. Conditions: 24 hours treatment, compounds at 50 nM and 500 nM (concentration behind the class not stated).

Row | Compound | substrate protein remaining % (IKZF3)
35 | O=C1CCC(N2Cc3cc(CN4CCC(N5CCN(c6cccc(Cl)c6Cl)CC5)C(F)(F)C4)c(F)cc3C2=O)C(=O)N1 (stereo not shown) | A (0% ≤ substrate protein remaining % ≤ 80%)
36 | O=C1CCC(N2Cc3cc(CN4CCC(N5CCC(c6noc7cc(F)ccc67)CC5)C(F)(F)C4)c(F)cc3C2=O)C(=O)N1 (stereo not shown) | A (0% ≤ substrate protein remaining % ≤ 80%)

What follows are compounds tested against GSPT1 (Homo sapiens, UniProt P15170+Q96SW2) in the same assay as above. Conditions: 24 hours treatment, compounds at 50 nM and 500 nM (concentration behind the class not stated).

Row | Compound | substrate protein remaining % (GSPT1)
37 | O=C1CCC(N2Cc3cc(CN4CCC(N5CCN(c6cccc(Cl)c6Cl)CC5)C(F)(F)C4)c(F)cc3C2=O)C(=O)N1 (stereo not shown) | A (0% ≤ substrate protein remaining % ≤ 80%)
38 | O=C1CCC(N2Cc3cc(CN4CCC(N5CCC(c6noc7cc(F)ccc67)CC5)C(F)(F)C4)c(F)cc3C2=O)C(=O)N1 (stereo not shown) | A (0% ≤ substrate protein remaining % ≤ 80%)

The compounds below were run against WEE1 (Homo sapiens, UniProt P30291+Q96SW2) in the same assay as above. Conditions: 24 hours treatment, compounds at 50 nM and 500 nM (concentration behind the class not stated).

Row | Compound | substrate protein remaining % (WEE1)
39 | O=C1CCC(N2Cc3cc(CN4CCC(N5CCN(c6cccc(Cl)c6Cl)CC5)C(F)(F)C4)c(F)cc3C2=O)C(=O)N1 (stereo not shown) | A (0% ≤ substrate protein remaining % ≤ 80%)
40 | O=C1CCC(N2Cc3cc(CN4CCC(N5CCC(c6noc7cc(F)ccc67)CC5)C(F)(F)C4)c(F)cc3C2=O)C(=O)N1 (stereo not shown) | A (0% ≤ substrate protein remaining % ≤ 80%)
